{
  "source": "paper PMC4281220",
  "about": "“Antibacterial Activity of Novel Cationic Peptides against Clinical Isolates of Multi-Drug Resistant Staphylococcus pseudintermedius from Infected Dogs” (PLoS ONE, 2014)",
  "key": {"[1]": {"tested_on": "S. pseudintermedius strains", "type": "cell-based, Staphylococcus pseudintermedius", "conditions": "24 h", "experimental": "The broth microdilution technique was used to determine the minimum inhibitory concentrations (MIC) of peptides and antibiotics in MHB in accordance with the Clinical and Laboratory Standards Institute (CLSI) guidelines. Peptides were dissolved in sterile distilled water containing 0.02% acetic acid. MIC assays were carried out with an initial bacterial inoculum of 5×10^5 colony forming unit (CFU/ml). Peptides and antibiotics were added to Polystyrene 96 well plates (CytoOne, CC7672-7596) at desired concentrations and plates were incubated for 24 hr at 37°C. MIC was defined as the lowest concentration of peptide which inhibited the visible growth of bacteria. MIC was done in triplicates and the highest value was reported.\nUntreated cells were used as a negative control."}, "[2]": {"tested_on": "mammalian cells (J774A.1 and HaCat)", "assay": "Cytotoxicity, MTS assay, statement for both cell lines", "conditions": "24 hours", "experimental": "Peptides were assayed at different concentrations against macrophage-like cell line (J774A.1) and human keratinocyte (HaCat) to determine the potential toxic effect in vitro. […] Untreated cells were used as a negative control. […] After incubation, the cells were washed three times with PBS and the media in each well were replaced with 100 µL of DMEM media and 20 µL of assay reagent, MTS 3-(4,5-dimethylthiazol-2-yl)-5-(3-carboxymethoxyphenyl)-2-(4-sulfophenyl)-2H-tetrazolium) (Promega, Madison, WI, USA). The cells were incubated further for 4 h at 37°C. Corrected absorbance readings (actual absorbance readings for each treatment subtracted from background absorbance) were taken using a kinetic ELISA microplate reader (Molecular Devices, Sunnyvale, CA, USA). Cell viability was expressed as percentage of absorbance in comparison to negative control, untreated cells.\nCytotoxicity data were subjected to statistical analysis using GraphPad Prism 6.0 (GraphPad Software, La Jolla, CA). Cytotoxicity data were analyzed using one-way ANOVA, with post hoc Tukey's multiple comparisons test. P-values of <0.01 were considered significant."}},
  "data": [
    {"smiles": "CC[C@H](C)[C@H](NC(=O)[C@H](CCCCN)NC(=O)[C@@H](NC(=O)[C@H](CCC(N)=O)NC(=O)[C@@H](N)CCCNC(=N)N)[C@@H](C)CC)C(=O)N[C@@H](Cc1c[nH]c2ccccc12)C(=O)N[C@@H](Cc1ccccc1)C(=O)N[C@@H](CCC(N)=O)C(=O)N[C@@H](CC(N)=O)C(=O)N[C@@H](CCCNC(=N)N)C(=O)N[C@@H](CCCNC(=N)N)C(=O)N[C@@H](CCSC)C(=O)N[C@@H](CCCCN)C(=O)N[C@@H](Cc1c[nH]c2ccccc12)C(=O)N[C@@H](CCCCN)C(=O)N[C@@H](CCCCN)C(=O)O", "note": "[Penetratin]", "values": [
      {"measurement": "GM MIC S. pseudintermedius", "setting": "[1]", "value": 8.76, "unit": "µM"},
      {"measurement": "concentration up to which not toxic to mammalian cells", "setting": "[2]", "value": "up to 256 µM"}
    ]}
  ]
}
